The results in this text go back to patent publication US20050032750A1, “Treating androgen deficiency in female (ADIF)-associated conditions with SARMS” (priority 2003, published 2005).

The test system of the assay is ovariectomized female rats. Description: Bone mineral content by whole body DEXA after ovariectomy (Example 2). It counts as in vivo, rat. The conditions noted are these: OVX female rats, 30 day treatment period.

For the compound `CC(=O)Nc1ccc(OC[C@](C)(O)C(=O)Nc2ccc([N+](=O)[O-])c(C(F)(F)F)c2)cc1` [Compound VI, S-3-(4-acetylamino-phenoxy)-2-hydroxy-2-methyl-N-(4-nitro-3-trifluoromethyl-phenyl)-propionamide], the “BMC increase relative to placebo-treated ovariectomized controls” value reads like this: (0.1 mg) “approximately 5%”; (0.3 mg) roughly 8.3%; (0.5 mg) roughly 4.7%; (0.75 mg) roughly 8.3%; (1 mg) roughly 10%; (3 mg) roughly 11.6%.
